The values below are quoted from earlier work in PMC7221482 (Neurochemistry international, 2019).

For the data set the following is noted: after acute treatment with 10 mg/kg (±)-citalopram, ref Karlsson et al., 2013; cited from earlier work.

Consider R-(−)-citalopram, for which the mouse brain concentration is 0.5 µM.
